Experiments:
[1] = system: HSP27 mRNA in A431 cells; assay: HSP27 gene silencing in cells (HSP27 mRNA expression); type: cell-based, human; settings: for IC50: A431, agent alone
[2] = system: HSP27 mRNA in A2058 cells; assay: as above; type: cell-based, human; settings: for IC50: A2058, conjugate alone
[3] = system: HSP27 mRNA; assay: A431 xenograft mouse tumor model, HSP27 gene silencing in tumors (qPCR); type: in vivo; settings: 1 dosing 30 mg/kg; tumors 72 h after first dosing
Procedure: Dosings started at day 12 when tumors reached ˜150 mm^3 in size and tumor samples were collected at 72 h after the first dosing and analysed for HSP27 gene expression compared to control gene mRNA expression levels (reference genes). […] Compared to the vehicle control tumors, a reduction of 40% HSP27 gene silencing was observed.
Dosing started at day 12 when tumors reached ˜150 mm^3 in size and HSP27 mRNA expression was determined. For this, tumor samples were collected at 72h after the first dosing and analysed for HSP27 gene expression levels compared to cellular control mRNA expression levels (reference genes).
The mouse study was performed at CrownBio (China) according to standard protocols and procedures. Model: Subcutaneous A431 Human Epidermoid Carcinoma Xenograft Model in female BALB/c nude Mice. Tumor volume was monitored and tumor samples were collected for gene silencing analysis (see below)

[4] = system: human A431 tumor cells; assay: A431 xenograft mouse tumor model, tumor volume; type: in vivo
Procedure: Female Balb/c nude mice were injected subcutaneously with a suspension of human A431 tumor cells. Under the skin of the mice, a human epidermal carcinoma developed in the xenograft animal tumor model. After injection of the tumor cells, the xenograft tumor was allowed to develop to a size of approximately 170-180 mm^3. The A431 tumor cells have the following characteristics: high EGFR expressors, medium CD71 expressors, low HER2 expressors.
In Table A, the results of the treatment of control mice and tumor-bearing mice are presented. […] The ADCs trastuzumab-saporin (covalent conjugate) and anti-CD71 mAb (OKT-9, IgG)-saporin (covalent conjugate) were tested for their tumor-attacking efficacy in the mice, measured as tumor volume in time after start of the treatment with the ADCs. […]
The conjugate was tested in a A431 (EGFR^++) xenograph mouse tumor model for EGFR tumor targeted cell killing as illustrated in FIG. 47. Dosings started at day 12 when tumors reached ˜150 mm^3 in size and tumor volume was determined after every dosing.
The mouse study was performed at CrownBio (China) according to standard protocols and procedures. […] Tumor volume was monitored and tumor samples were collected for gene silencing analysis (see below)

| Substance | reduction in HSP27 mRNA expression compared to single dosing of mono-conjugates [3] [%] | reduction of HSP27 gene expression compared to vehicle control [3] [%] | IC50 [1] [nM] | IC50 [2] [nM] | other results |
| --- | --- | --- | --- | --- | --- |
| cetuximab-(Cys-L-SO1861)^3,8: SO1861-EMCH conjugated via cysteine residues to cetuximab |  |  |  |  | IC50 HSP27 gene silencing ([1]; A431 (EGFR++), agent titrated + fixed 100 nM cetuximab-(Lys-L-HSP27BNA)^4): strong HSP27 gene silencing; HSP27 gene silencing activity ([2]; A2058 (EGFR-), agent titrated + 100 nM cetuximab-(Lys-L-HSP27BNA)^4): no gene silencing activity was observed |
| cetuximab-(Cys-L-SO1861)^3,9(Lys-L-HSP27BNA)^1,8: cetuximab with SO1861-EMCH (Cys, DAR 3,9) and HSP27BNA (Lys, labile, DAR 1,8) | 40 | 25 |  |  |  |
| Cetuximab-SO1861: cetuximab covalently conjugated with SO1861 via EMCH to reduced cysteines |  |  |  |  | tumor size (volume in mm^3) ([4]; A431 xenograft, female Balb/c nude mice, ~170-180 mm^3 at start, sub-optimal ADC dose): 2000 mm^3; outcome (death/euthanasia or survival) ([4]; same study as tumor size, Table A): death/euthanasia |
| cetuximab-Cys-(SO1861-L-trifunctional linker-L-HSP27BNA)^3,7: SO1861-L-trifunctional linker-L-HSP27BNA conjugated with its third arm to cysteine residues of cetuximab | 40 | 25 | 2 | 100 |  |
| cetuximab-(Cys-L-SO1861)^3,8(Lys-L-HSP27BNA)^3,8: cetuximab with SO1861 (labile) and HSP27BNA oligo (labile) |  |  | 3 | > 100 |  |

Reference: patent publication US20220054643A1, “SAPONIN CONJUGATED TO EPITOPE-BINDING PROTEINS” (priority 2018, published 2022)
